{"sequences": {"note": "Sequences of proteins named here, by UniProt entry; tags and fusion partners are left off.", "UniProt P14416, whole entry": "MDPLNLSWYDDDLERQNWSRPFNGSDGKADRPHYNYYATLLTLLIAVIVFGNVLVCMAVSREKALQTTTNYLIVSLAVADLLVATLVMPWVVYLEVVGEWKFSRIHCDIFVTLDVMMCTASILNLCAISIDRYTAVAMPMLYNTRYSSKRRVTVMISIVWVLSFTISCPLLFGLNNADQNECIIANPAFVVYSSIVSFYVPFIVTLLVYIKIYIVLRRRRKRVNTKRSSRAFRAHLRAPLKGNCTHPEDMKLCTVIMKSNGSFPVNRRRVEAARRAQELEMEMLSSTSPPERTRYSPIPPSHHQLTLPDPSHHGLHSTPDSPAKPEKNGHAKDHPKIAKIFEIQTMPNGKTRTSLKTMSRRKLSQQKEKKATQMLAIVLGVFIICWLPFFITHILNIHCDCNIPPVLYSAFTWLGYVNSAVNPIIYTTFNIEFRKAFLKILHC"}, "source": "PubChem BioAssay AID485358", "about": "(National Center for Advancing Translational Sciences (NCATS), 2010)", "note": "The list shows a part of the results, in another mix than the full data. The source made the active and inactive calls.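 How the source made its calls: active means activation over 3 SD above normal in the single-dose calcium agonist read (cut at about 30% in these data); inactive means the rest.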"}
{"target": "D(2) dopamine receptor (Homo sapiens) (UniProt P14416)", "experiment": "HTS Assay for Allosteric Agonists of the Human D2 Dopamine Receptor: Primary Screen for Agonists; further: 0% is about no effect", "settings": "HEK293 T-REx D2 cells, calcium flux agonist mode; at 2 µM; active compounds read high", "from_the_text": "NIH Chemical Genomics Center [NCGC] NIH Molecular Libraries Probe Centers Network [MLPCN] MLPCN Grant: NS064831-01 Assay Submitter (PI): David Sibley Dopamine receptors (DARs) are involved in the etiology and/or therapy of a number of neuropsychiatric and endocrine disorders. For instance, all receptor-based antiparkinsonian drugs work via stimulating the D2 DAR subtype whereas all FDA-approved antipsychotic agents are antagonists of this receptor. […] There are three different types of allosteric modulators that we are seeking, two of which will stimulate or augment receptor signaling, allosteric agonists and potentiators, while the third, allosteric antagonists, will attenuate receptor signaling. The present primary screening assay measures compound agonism by tracking calcium flux in a […], inducible Hek293 Trex D2 cell line.\nFreshly passaged cells are plated in 1536 well black, clear bottom plates at a density of 4000 cells/well in 3 ul of complete media containing 1x tetracycline inducer. After an overnight incubation at […] in 5% CO2, cells are loaded with 2 ul of the no wash Calcium Assay Kit (ABD Bioquest) and incubated at room temperature for 30 to 90 minutes. Agonist read: A 10 cycle (1 second/cycle) baseline measurement is taken and then the FDSS online 1536 pintool delivers 23 nl of compound library (as well as dopamine controls) to the plate. The plate is measured for kinetically at 1 cycle/sec for 180 seconds and is considered to be the agonist portion of the assay (eg, compounds which activate a positive calcium response during this portion are flagged as potential agonists). Following the 180 second read, 1 ul of either an EC20 (positive modulation assay) or EC80 (negative modulation assay) is delivered by an onboard pipette head. Measurements are taken kinetically for an additional 180 seconds."}
{"compound": "CP(=O)(Nc1ccccc1F)Oc1ccccc1", "note": "(centres undefined)", "activation": "inactive: -0.803%"}
{"compound": "CC(C)c1ccc(OP(C)(=O)Nc2ccc(SC(F)(F)F)cc2)cc1", "note": "(centres undefined)", "activation": "inactive: 3.68%"}
{"compound": "O=C(OCCN1CCN(CCOCc2ccccc2)CC1)C(O)(c1ccccc1)c1ccccc1", "activation": "inactive: -0.344%"}
{"compound": "COc1ccc(OP(C)(=O)Nc2ccc(SC(F)(F)F)cc2)cc1", "note": "(centres undefined)", "activation": "inactive: 0.86%"}
{"compound": "CP(=O)(Nc1ccccc1)Oc1ccc(F)cc1", "note": "(centres undefined)", "activation": "inactive: 0.287%"}
{"compound": "CCCCCOc1ccc(NP(C)(=O)Oc2ccc(Cl)cc2Cl)cc1", "note": "(centres undefined)", "activation": "inactive: 0.188%"}
{"compound": "COc1ccc(OP(C)(=O)Nc2cccc(Br)c2)cc1", "note": "(centres undefined)", "activation": "inactive: -0.468%"}
{"compound": "CN(C)CCOC(=O)C(O)(c1ccccc1)C1CCCCC1", "note": "(centres undefined)", "activation": "inactive: 0.766%"}
{"compound": "COc1ccc(NP(C)(=O)Oc2ccccc2OC)cc1", "note": "(centres undefined)", "activation": "inactive: -0.124%"}
{"compound": "O=[N+]([O-])c1ccc(OP2(=O)COCCO2)cc1", "note": "(centres undefined)", "activation": "inactive: 0.827%"}
{"compound": "Cc1cc(-c2cccc3ccccc23)c(C)cn1.O=[N+]([O-])c1cc([N+](=O)[O-])c(O)c([N+](=O)[O-])c1", "activation": "inactive: 0.325%"}
{"compound": "CP(=O)(Nc1ccc(SC(F)(F)F)cc1)Oc1ccc(F)cc1", "note": "(centres undefined)", "activation": "inactive: 0.426%"}
{"compound": "Cc1ccccc1NP(C)(=O)Nc1ccccc1C", "activation": "inactive: -0.587%"}
{"compound": "CCN(CC)CC(O)COC(=O)C(O)(c1ccccc1)C1CCCCC1", "note": "(centres undefined)", "activation": "inactive: 0.0243%"}
{"compound": "COc1ccc(OP(C)(=O)Nc2ccc(Br)cc2)cc1", "note": "(centres undefined)", "activation": "inactive: 0.441%"}
{"compound": "COc1ccccc1OP(C)(=O)Nc1c(C)n(C)n(-c2ccccc2)c1=O", "note": "(centres undefined)", "activation": "inactive: 0.153%"}
{"compound": "O=C(OCCCN1CCCC1)C(O)(c1ccccc1)C1CCCCC1", "note": "(centres undefined)", "activation": "inactive: -1.81%"}
{"compound": "CP(=O)(Oc1ccccc1)N1CCOC1=O", "note": "(centres undefined)", "activation": "inactive: 0.613%"}
{"compound": "CCc1ccc(OP(C)(=O)Nc2cccnc2)cc1", "note": "(centres undefined)", "activation": "inactive: -0.35%"}
{"compound": "COc1ccccc1OP(C)(=O)Nc1ccccc1Br", "note": "(centres undefined)", "activation": "inactive: -1.02%"}
{"compound": "CC(C)(C)c1ccc(OP(C)(=O)O)cc1", "activation": "inactive: -0.045%"}
{"compound": "CP(=O)(Nc1ccc(Cl)cc1)Oc1ccc(F)cc1", "note": "(centres undefined)", "activation": "inactive: 0.318%"}
{"compound": "CN(C)C(=O)c1c([N+](=O)[O-])cc([N+](=O)[O-])cc1[N+](=O)[O-]", "activation": "inactive: -0.333%"}
{"compound": "CCOC(=O)c1ccc(NP(C)(=O)Oc2ccc(Cl)cc2)cc1", "note": "(centres undefined)", "activation": "inactive: -1.53%"}
{"compound": "CP(=O)(OC12CC3CC(CC(C3)C1)C2)OC12CC3CC(CC(C3)C1)C2", "activation": "inactive: 5.12%"}
{"compound": "Cc1cc(C)cc(OP(C)(=O)Nc2cccc(C(F)(F)F)c2)c1", "note": "(centres undefined)", "activation": "inactive: -0.578%"}
{"compound": "COc1ccccc1OP(C)(=O)Nc1ccc(C)c(C)c1", "note": "(centres undefined)", "activation": "inactive: 0.576%"}
{"compound": "COc1ccc(OP(C)(=O)Nc2ccccc2Br)cc1", "note": "(centres undefined)", "activation": "inactive: -0.321%"}
{"compound": "Cc1nc2ccc3ccccc3c2o1.O=[N+]([O-])c1cc([N+](=O)[O-])c(O)c([N+](=O)[O-])c1", "activation": "inactive: -1.02%"}
{"compound": "CP(=O)(Nc1ccc(Cl)cc1Cl)Oc1ccccc1", "note": "(centres undefined)", "activation": "inactive: 0.376%"}
{"compound": "CP(=O)(OCCOc1ccccc1)OCCOc1ccccc1", "activation": "inactive: -0.309%"}
{"compound": "COc1ccccc1OP(C)(=O)Nc1ccc(Br)cc1", "note": "(centres undefined)", "activation": "inactive: -0.0694%"}
{"compound": "COc1ccc(OP(C)(=O)Nc2ccccn2)cc1", "note": "(centres undefined)", "activation": "inactive: -0.0014%"}
{"compound": "CN(C)CCOC(=O)C(O)(c1ccccc1)C1CCCC1", "note": "(centres undefined)", "activation": "inactive: 0.293%"}
{"compound": "Cc1c(NP(C)(=O)Oc2ccc(C(C)C)cc2)c(=O)n(-c2ccccc2)n1C", "note": "(centres undefined)", "activation": "inactive: 0.0159%"}
{"compound": "O=[N+]([O-])c1cc([N+](=O)[O-])c(Nc2ccccn2)c([N+](=O)[O-])c1", "activation": "inactive: 2.51%"}
{"compound": "CP(=O)(Nc1ccccn1)Oc1ccccc1", "note": "(centres undefined)", "activation": "inactive: -0.681%"}
{"compound": "COc1ccccc1OP(C)(=O)Nc1ccc(C)cc1C", "note": "(centres undefined)", "activation": "inactive: -0.106%"}
{"compound": "CCc1ccc(OP(C)(=O)O)cc1", "activation": "inactive: 0.796%"}
{"compound": "CCN(CC)CCCOC(=O)C(O)(c1ccccc1)c1ccccc1", "activation": "inactive: 0.931%"}
{"compound": "O=[N+]([O-])c1cc([N+](=O)[O-])c(Nc2cccnc2)c([N+](=O)[O-])c1", "activation": "inactive: 12.7%"}
{"compound": "O=[N+]([O-])c1ccc2c(c1)C=Nc1ccccc1O2", "activation": "inactive: 0.242%"}
{"compound": "CC(C)(C)c1ccc(OP(C)(=O)Nc2ccc(SC(F)(F)F)cc2)cc1", "note": "(centres undefined)", "activation": "inactive: 1.16%"}
{"compound": "Cc1cccc(C)c1OP(C)(N)=O", "note": "(centres undefined)", "activation": "inactive: 5.4%"}
{"compound": "COc1ccccc1OP(C)(=O)Nc1ccc(C)cc1", "note": "(centres undefined)", "activation": "inactive: 0.0092%"}
{"compound": "Cc1ccc(NP(C)(=O)Oc2ccccc2)c(C)c1", "note": "(centres undefined)", "activation": "inactive: 1.04%"}
{"compound": "CCOC(=O)c1ccc(NP(C)(=O)Oc2ccccc2)cc1", "note": "(centres undefined)", "activation": "inactive: 0.742%"}
{"compound": "Cc1cc(C)cc(OP(C)(N)=O)c1", "note": "(centres undefined)", "activation": "inactive: 1.86%"}
{"compound": "COc1ccc(OP(C)(=O)Nc2cccc(F)c2)cc1", "note": "(centres undefined)", "activation": "inactive: 0.247%"}
{"compound": "CP(=S)(Nn1cnnc1)Oc1ccccc1", "note": "(centres undefined)", "activation": "inactive: 0.0508%"}
{"compound": "CP(=O)(Nc1ccccc1Br)Oc1ccccc1", "note": "(centres undefined)", "activation": "inactive: 0.91%"}
{"compound": "COc1ccccc1OP(C)(=O)Nc1ccccc1", "note": "(centres undefined)", "activation": "inactive: -0.17%"}
{"compound": "Cc1cccc(C)c1OP(C)(=O)Nc1ccc(SC(F)(F)F)cc1", "note": "(centres undefined)", "activation": "inactive: 2.13%"}
{"compound": "CP(=O)(Nc1ccc(SC(F)(F)F)cc1)Oc1ccc(Cl)cc1", "note": "(centres undefined)", "activation": "inactive: 1.46%"}
{"compound": "CP(=O)(Oc1ccccc1)OC(c1ccccc1)C(F)(F)F", "note": "(centres undefined)", "activation": "inactive: 1.25%"}
{"compound": "CP(=O)(NC(=O)Nc1ccccc1)Oc1ccccc1", "note": "(centres undefined)", "activation": "inactive: -0.926%"}
{"compound": "CCc1ccc(OP(C)(=O)N2CCN(c3ccc([N+](=O)[O-])cc3)CC2)cc1", "note": "(centres undefined)", "activation": "inactive: 1.57%"}
{"compound": "Cc1cc(C)cc(OP(C)(=O)Nc2ccc(SC(F)(F)F)cc2)c1", "note": "(centres undefined)", "activation": "inactive: -0.126%"}
{"compound": "CCOC(=O)c1ccc(NP(C)(=O)Oc2ccc(OC)cc2)cc1", "note": "(centres undefined)", "activation": "inactive: 0.0689%"}
{"compound": "CCOP(C)(=S)SCC(=O)NC(C)C(=O)O", "note": "(centres undefined)", "activation": "inactive: -2.19%"}
{"compound": "CP(=O)(Nc1ccccn1)Oc1ccc(Cl)cc1", "note": "(centres undefined)", "activation": "inactive: 0.301%"}
{"compound": "O=[N+]([O-])c1cc([N+](=O)[O-])c(-n2nnc3ccccc32)c([N+](=O)[O-])c1", "activation": "inactive: 2.74%"}
{"compound": "Cc1nc2ccc3ccccc3c2s1.O=[N+]([O-])c1cc([N+](=O)[O-])c(O)c([N+](=O)[O-])c1", "activation": "inactive: 0.302%"}
{"compound": "CC1=C2N=C(C=C3N=C(C(C)=C4[N-][C@@](C)([C@@H]5N=C1[C@](C)(CCC(=O)NC[C@@H](C)OP(=O)([O-])O[C@H]1[C@@H](O)[C@@H](n6cnc7cc(C)c(C)cc76)O[C@@H]1CO)[C@H]5CC(N)=O)[C@@](C)(CC(N)=O)[C@@H]4CCC(N)=O)[C@@](C)(CC(N)=O)[C@@H]3CCC(N)=O)C(C)(C)[C@@H]2CCC(N)=O.[C-]#N.[Co+3]", "activation": "inactive: -1.52%"}
{"compound": "O=[N+]([O-])c1cc([N+](=O)[O-])c(Nc2nnnn2CCO)c([N+](=O)[O-])c1", "activation": "inactive: 1.31%"}
{"compound": "COc1ccccc1OP(C)(=O)Nc1c(C)cccc1C", "note": "(centres undefined)", "activation": "inactive: -0.456%"}
{"compound": "CN1CCCCC1COC(=O)C1(O)c2ccccc2CCc2ccccc21", "note": "(centres undefined)", "activation": "inactive: 0.024%"}
{"compound": "CP(=O)(Nc1ccc(SC(F)(F)F)cc1)Oc1ccccc1", "note": "(centres undefined)", "activation": "inactive: 1.94%"}
{"compound": "CC1=NCCc2c1[nH]c1ccccc21.O=[N+]([O-])c1cc([N+](=O)[O-])c(O)c([N+](=O)[O-])c1", "activation": "inactive: 0.893%"}
{"compound": "COc1ccccc1OP(C)(=O)Nc1cccc(Br)c1", "note": "(centres undefined)", "activation": "inactive: 3.27%"}
{"compound": "CCOC(=O)c1ccc(NP(C)(=O)Oc2cc(C)cc(C)c2)cc1", "note": "(centres undefined)", "activation": "inactive: 0.105%"}
{"compound": "Cc1ccc(C)c(NP(C)(=O)Oc2ccccc2)c1", "note": "(centres undefined)", "activation": "inactive: -0.449%"}
{"compound": "Cc1cc(C)cc(OP(C)(=O)Nc2ccccn2)c1", "note": "(centres undefined)", "activation": "inactive: -0.577%"}
{"compound": "CP(=O)(Nc1cccc(Br)c1)Oc1ccccc1", "note": "(centres undefined)", "activation": "inactive: 0.342%"}
